{"source": "patent US20110021471A1", "about": "“REDUCING Abeta42 LEVELS AND Abeta AGGREGATION” (priority 2007, published 2011)", "system": "Tg2576 mice", "test": "Acute oral dosing of Tg2576 mice, brain soluble Aβ after 4 hours", "format": "in vivo, mouse", "method": "FIG. 2. Aβ modulating agents can inhibit Aβ aggregation, and agents that bind Aβ amyloid can modulate Aβ42 production. […] (C) Aβ42 modulating agents inhibit naturally secreted oligomer formation. 7PA2 cells were treated with fenofibrate, FT-1, or FT-9 at 50 μM and oligomers assessed by IP Western blotting. […] (D) FT-9, an Aβ42 reducing agent, can inhibit Aβ42 aggregation in vitro.\nFIG. 13. Compounds that bind Aβ are GSMs in vitro and in vivo. (A) A cell-based screen of Aβ-binders identified molecules that increase Aβ42 (DAPH) or decrease Aβ42 (Bis-ANS, X-34 or chrysamine G (CG)). Data are mean±s.e.m., n=3. (B) X-34 is an Aβ42-lowering GSM. Changes in amyloid-β peptide amounts after X-34 treatment are shown. Data are presented as percentage control±s.e.m., n=3. EC50 values were calculated. […] NA, not applicable. (C) X-34 binds to APP(C100)-Flag and decreases labeling by GSM photoprobes. Biotin incorporation into APP by Fen-B and Flurbi-BpB is presented as percentage of control (peptide without X-34)±s.e.m., n=2. (D) X-34 lowers Aβ42 in Tg2576 mice after 4 h. […] Data are presented as amyloid-β percentage of control relative to vehicle±s.e.m. Animals per group (n). Asterisk, P,0.05; two asterisks, P,0.01; ANOVA with Dunnett's post-hoc analysis.\nFinally, X-34 was tested for its ability to modulate Aβ42 amounts in an APP transgenic mouse (Tg2576).", "data": [{"smiles": "C[C@@H](C(=O)O)c1ccc(-c2ccccc2)c(F)c1", "note": "[Tarenflurbil]", "values": [{"measurement": "Aβ40 (percentage of control)", "setting": "50 mg kg21, Tg2576 mice, 4 h", "result": 123, "unit": "%"}, {"measurement": "selectivity of Aβ reduction (Aβ42 vs Aβ40)", "setting": "Tg2576, oral gavage, 4 hours", "result": "selective reductions of Aβ42"}]}]}
